This note sets out measurements from patent US9725426B2, “Cystathionine-γ-lyase (CSE) inhibitors” (SOVA PHARMACEUTICALS, INC., priority 2012, dated 2017).

Sequences of proteins named here, by UniProt entry; tags and fusion partners are left off.
UniProt P32929, whole entry, looked up: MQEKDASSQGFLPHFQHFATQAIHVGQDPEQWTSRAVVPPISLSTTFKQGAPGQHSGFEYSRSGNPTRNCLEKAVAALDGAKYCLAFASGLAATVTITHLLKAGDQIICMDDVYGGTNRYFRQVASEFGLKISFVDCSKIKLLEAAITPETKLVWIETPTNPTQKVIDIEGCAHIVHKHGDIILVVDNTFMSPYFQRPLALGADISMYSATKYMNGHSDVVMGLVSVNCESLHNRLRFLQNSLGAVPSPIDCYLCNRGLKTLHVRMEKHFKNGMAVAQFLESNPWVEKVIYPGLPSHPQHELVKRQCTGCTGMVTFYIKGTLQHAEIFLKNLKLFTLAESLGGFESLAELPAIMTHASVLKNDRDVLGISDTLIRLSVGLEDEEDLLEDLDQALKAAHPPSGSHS

Where a name gives a salt, the structure may show the parent alone.

The target of this assay is human, mouse or rat recombinant CSE (Homo sapiens, UniProt P32929).

For the compound `CC(C)N(N)c1nnn[nH]1` [Example 9], the IC50 is > 100 µM.

In the case of `NCCN(N)c1nnn[nH]1` [Example 13], the IC50 was < 10 µM. The result for `CN(N)c1nnn[nH]1` [Example 11, 5-(1-methylhydrazinyl)-1H-tetrazole] reads < 10 µM. Under `CN(N)c1nnn(C)n1` [Example 29, 2-methyl-5-(1-methylhydrazinyl)-2H-tetrazole] stands > 100 µM; under `CCN(N)c1nnn[nH]1` [Example 4, 5-(1-ethylhydrazinyl)-1H-tetrazole], < 10 µM; under `CC(C)=NNc1nnn[nH]1` [Example 21], < 10 µM. The result for `NNCC(=O)O` [2-hydrazinylacetic acid hydrochloride] reads < 10 µM; that for `C#CCN(N)c1nnn[nH]1` [Example 3, 5-(1-(prop-2-ynyl)hydrazinyl)-1H-tetrazole], < 10 µM.

Regarding `NCCCN(N)c1nnn[nH]1` [Example 12, 3-(1-(1H-tetrazol-5-yl)hydrazinyl)propan-1-amine dihydrochloride], the concentration for half-maximal inhibition (IC50) is < 10 µM.
